Measured values published in US20040110681A1, “Method to identify targeting molecules” (priority 2002, published 2004).

Tested on: brain, lung, liver, kidney, blood and spleen
Assay: Pharmacokinetic (PK) analysis of T7-CAGALCY and T7-lacZ phage, plaque assay
Assay type: in vivo, FVB female mice
Method: A3-T7 was amplified in the host strain BLT-5615 in the presence of 1 mM IPTG and purified. T7-lacZ phage were amplified by large scale plating on LB plates. The plates were incubated at 25° C. overnight, and phage were eluted with phage extraction buffer (20 mM Tris-HCl, pH 8.0, 100 mM NaCl, 6 mM MgSO4) overnight at 4° C. with gentle rocking. The extracted phage were pooled and purified. In the PK study, in paragraph A below, three mice were used per time point, co-injected with 1×10^10 pfu of each phage. Time points were 2 min, 10 min, 30 min, 1 hr, 2 hr, 4 hr, 6 hr, 12 hr, and 24 hr.
1×10^10 pfu of T7-CAGALCY and T7-lacZ phage were co-injected into FVB female mice. Mice were anesthetized with Avertin 2-4 minutes before the scheduled harvest time (the mice assigned to the 2 minute time-point were anesthetized prior to administration of the phage). The brain, lung, liver, kidney, blood and spleen were harvested at 2 min, 10 min, 30 min, 1 hr, 2 hr, 4 hr, 6 hr, 12 hr, and 24 hr. The phage contents in each organ were determined by plaque assay in the presence of X-gal in top agar.

[1] = 10 min after 1 × 10^10 of each phage per mouse
[2] = 4 hrs after 1 × 10^10 of each phage per mouse
[3] = 24 hrs after 1 × 10^10 of each phage per mouse

Substance: CAGALCY [T7-A3]
- half-life in blood (1×10^10 pfu of each phage co-injected): 8.9 min
- Yield of phage recovered from blood [1]: 1.8 × 10^9 ± 2.4 × 10^8 pfu/mL
- Yield of phage recovered from brain [1]: 3.9 × 10^6 ± 5.7 × 10^5 pfu/gm
- Yield of phage recovered from kidney [1]: 1.6 × 10^8 ± 6.2 × 10^7 pfu/gm
- Yield of phage recovered from liver [1]: 6.0 × 10^9 ± 5.1 × 10^9 pfu/gm
- Yield of phage recovered from lung [1]: 9.9 × 10^7 ± 2.7 × 10^7 pfu/gm
- Yield of phage recovered from spleen [1]: 1.7 × 10^9 ± 3.0 × 10^8 pfu/gm
- decrease of number of phage in the blood (2 hr post injection): more than 3 logs
- Yield of phage recovered from blood [2]: 1.2 × 10^6 ± 6.1 × 10^5 pfu/mL
- Yield of phage recovered from brain [2]: 1.7 × 10^6 ± 1.3 × 10^6 pfu/gm
- Yield of phage recovered from kidney [2]: 5.1 × 10^7 ± 3.0 × 10^6 pfu/gm
- Yield of phage recovered from liver [2]: 4.1 × 10^7 ± 1.2 × 10^7 pfu/gm
- Yield of phage recovered from lung [2]: 5.2 × 10^7 ± 1.7 × 10^7 pfu/gm
- Yield of phage recovered from spleen [2]: 2.6 × 10^8 ± 2.0 × 10^7 pfu/gm
- Yield of phage recovered from blood [3]: 1.6 × 10^4 ± 1.7 × 10^4 pfu/mL
- Yield of phage recovered from brain [3]: 1.5 × 10^5 ± 7.7 × 10^4 pfu/gm
- Yield of phage recovered from kidney [3]: 3.4 × 10^6 ± 3.8 × 10^6 pfu/gm
- Yield of phage recovered from liver [3]: 3.4 × 10^5 ± 1.9 × 10^5 pfu/gm
- Yield of phage recovered from lung [3]: 5.2 × 10^6 ± 5.2 × 10^6 pfu/gm
- Yield of phage recovered from spleen [3]: 1.9 × 10^6 ± 1.6 × 10^5 pfu/gm
- tissue half-life in the brain (mouse, in vivo): 8.3 h
- tissue half-life in the kidney (mouse, in vivo): 7.8 h
- tissue half-life in the liver (mouse, in vivo): 1.3 h
- tissue half-life in the lung (mouse, in vivo): 5.5 h
- tissue half-life in the spleen (mouse, in vivo): 5.8 h
